In ChEMBL document CHEMBL2218924, “A broad activity screen in support of a chemogenomic map for kinase signalling research and drug discovery” (Biochem J, 2013):
For some of these results: Most of the strong results are listed elsewhere, so they are rarer here than in the full data. Only a part is listed here, and it is no random draw.

By UniProt entry, the sequences of proteins in these tests, tags left out. Where a name states a change or a piece, a line headed by the entry shows the natural chain unless it says otherwise.
UniProt Q15375: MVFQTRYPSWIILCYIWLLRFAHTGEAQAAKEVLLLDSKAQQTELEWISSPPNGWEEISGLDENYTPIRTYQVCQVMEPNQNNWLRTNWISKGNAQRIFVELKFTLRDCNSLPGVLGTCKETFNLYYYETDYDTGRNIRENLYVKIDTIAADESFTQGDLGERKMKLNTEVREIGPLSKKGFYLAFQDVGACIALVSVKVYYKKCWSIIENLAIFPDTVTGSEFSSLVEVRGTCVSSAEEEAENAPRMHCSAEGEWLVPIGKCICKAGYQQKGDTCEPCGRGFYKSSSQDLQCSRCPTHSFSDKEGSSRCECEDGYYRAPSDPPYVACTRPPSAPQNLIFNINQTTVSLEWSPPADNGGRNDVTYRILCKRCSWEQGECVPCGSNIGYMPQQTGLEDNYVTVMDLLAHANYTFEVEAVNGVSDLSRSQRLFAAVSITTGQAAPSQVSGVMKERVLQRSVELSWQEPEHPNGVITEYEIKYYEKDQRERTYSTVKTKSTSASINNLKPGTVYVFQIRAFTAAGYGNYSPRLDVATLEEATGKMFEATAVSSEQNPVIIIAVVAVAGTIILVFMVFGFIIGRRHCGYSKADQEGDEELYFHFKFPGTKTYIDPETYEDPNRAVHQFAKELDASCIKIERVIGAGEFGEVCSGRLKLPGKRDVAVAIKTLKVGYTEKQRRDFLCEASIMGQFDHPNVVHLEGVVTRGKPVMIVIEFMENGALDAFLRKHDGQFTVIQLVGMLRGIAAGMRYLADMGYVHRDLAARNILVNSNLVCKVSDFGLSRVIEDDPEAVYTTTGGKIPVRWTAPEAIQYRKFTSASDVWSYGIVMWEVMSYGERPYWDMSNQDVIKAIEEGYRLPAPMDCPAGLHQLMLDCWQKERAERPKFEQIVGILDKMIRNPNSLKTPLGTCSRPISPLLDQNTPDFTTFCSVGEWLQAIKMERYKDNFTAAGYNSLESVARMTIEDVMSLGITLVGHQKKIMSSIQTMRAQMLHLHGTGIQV
UniProt P22607, whole entry, looked up: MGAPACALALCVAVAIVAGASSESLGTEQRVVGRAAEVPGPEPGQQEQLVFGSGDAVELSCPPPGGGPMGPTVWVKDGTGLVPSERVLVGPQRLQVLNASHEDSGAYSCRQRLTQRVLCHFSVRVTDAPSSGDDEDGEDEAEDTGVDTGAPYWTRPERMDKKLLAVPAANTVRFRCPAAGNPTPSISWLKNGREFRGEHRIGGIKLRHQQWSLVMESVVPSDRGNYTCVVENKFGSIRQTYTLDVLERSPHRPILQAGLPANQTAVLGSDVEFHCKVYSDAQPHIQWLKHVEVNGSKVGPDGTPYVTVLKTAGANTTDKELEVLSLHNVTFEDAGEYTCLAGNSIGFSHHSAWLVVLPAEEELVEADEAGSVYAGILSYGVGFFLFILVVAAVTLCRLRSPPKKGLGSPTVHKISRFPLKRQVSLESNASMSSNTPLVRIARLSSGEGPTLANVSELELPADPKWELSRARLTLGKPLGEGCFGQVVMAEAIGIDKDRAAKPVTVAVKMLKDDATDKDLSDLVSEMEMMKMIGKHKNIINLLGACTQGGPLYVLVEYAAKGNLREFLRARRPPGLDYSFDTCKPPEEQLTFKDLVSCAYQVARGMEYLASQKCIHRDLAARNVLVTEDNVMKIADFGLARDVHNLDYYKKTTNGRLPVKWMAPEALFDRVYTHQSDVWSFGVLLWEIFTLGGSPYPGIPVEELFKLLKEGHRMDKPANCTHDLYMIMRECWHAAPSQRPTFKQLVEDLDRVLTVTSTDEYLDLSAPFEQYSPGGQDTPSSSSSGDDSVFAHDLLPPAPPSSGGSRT
UniProt P07332: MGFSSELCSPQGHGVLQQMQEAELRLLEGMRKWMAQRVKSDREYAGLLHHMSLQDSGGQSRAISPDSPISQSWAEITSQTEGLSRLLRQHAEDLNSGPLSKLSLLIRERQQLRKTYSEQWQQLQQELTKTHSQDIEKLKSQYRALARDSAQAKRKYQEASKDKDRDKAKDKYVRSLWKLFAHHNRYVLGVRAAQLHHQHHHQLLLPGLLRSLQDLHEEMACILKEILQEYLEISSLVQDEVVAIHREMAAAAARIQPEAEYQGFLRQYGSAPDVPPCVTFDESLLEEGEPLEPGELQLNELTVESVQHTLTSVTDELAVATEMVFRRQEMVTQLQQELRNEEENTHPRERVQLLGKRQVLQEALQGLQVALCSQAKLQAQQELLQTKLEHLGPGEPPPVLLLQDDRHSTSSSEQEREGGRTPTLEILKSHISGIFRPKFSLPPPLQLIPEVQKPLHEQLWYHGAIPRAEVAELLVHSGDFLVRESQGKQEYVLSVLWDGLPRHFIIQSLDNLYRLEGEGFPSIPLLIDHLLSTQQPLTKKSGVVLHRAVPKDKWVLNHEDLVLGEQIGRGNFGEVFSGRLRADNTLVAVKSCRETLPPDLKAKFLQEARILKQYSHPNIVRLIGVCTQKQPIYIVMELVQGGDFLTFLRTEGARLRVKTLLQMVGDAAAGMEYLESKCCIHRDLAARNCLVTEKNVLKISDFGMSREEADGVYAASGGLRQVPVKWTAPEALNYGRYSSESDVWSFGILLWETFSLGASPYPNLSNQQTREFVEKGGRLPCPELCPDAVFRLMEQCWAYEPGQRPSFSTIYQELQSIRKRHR
UniProt P06241, whole entry, looked up: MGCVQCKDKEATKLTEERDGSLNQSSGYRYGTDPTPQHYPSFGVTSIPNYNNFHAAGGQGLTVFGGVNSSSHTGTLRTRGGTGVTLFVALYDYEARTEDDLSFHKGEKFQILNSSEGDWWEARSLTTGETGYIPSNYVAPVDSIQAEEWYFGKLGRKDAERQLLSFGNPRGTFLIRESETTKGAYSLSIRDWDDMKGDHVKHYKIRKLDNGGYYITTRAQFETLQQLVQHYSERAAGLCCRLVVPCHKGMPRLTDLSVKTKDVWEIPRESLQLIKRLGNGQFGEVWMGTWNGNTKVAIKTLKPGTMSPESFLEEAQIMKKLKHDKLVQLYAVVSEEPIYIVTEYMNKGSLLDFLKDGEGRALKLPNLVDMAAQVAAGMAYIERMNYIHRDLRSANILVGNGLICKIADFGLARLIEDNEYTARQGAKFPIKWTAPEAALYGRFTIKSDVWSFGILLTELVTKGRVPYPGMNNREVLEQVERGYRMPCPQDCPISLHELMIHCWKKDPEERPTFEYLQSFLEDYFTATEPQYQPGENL
UniProt P43250, whole entry, looked up: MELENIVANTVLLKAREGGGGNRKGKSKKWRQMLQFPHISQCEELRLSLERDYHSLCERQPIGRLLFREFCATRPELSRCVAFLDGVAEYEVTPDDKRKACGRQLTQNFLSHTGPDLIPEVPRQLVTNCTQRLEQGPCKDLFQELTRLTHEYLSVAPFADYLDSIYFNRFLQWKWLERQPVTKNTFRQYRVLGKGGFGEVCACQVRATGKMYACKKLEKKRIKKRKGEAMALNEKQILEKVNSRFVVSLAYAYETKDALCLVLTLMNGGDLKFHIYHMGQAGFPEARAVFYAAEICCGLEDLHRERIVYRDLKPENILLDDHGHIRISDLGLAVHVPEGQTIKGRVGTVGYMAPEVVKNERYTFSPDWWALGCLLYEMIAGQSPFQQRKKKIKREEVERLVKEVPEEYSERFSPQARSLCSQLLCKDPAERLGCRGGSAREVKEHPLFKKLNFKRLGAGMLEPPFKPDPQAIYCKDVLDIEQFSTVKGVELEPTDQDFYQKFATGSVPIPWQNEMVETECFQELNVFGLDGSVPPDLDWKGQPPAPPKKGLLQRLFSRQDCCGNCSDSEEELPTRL
UniProt Q86Z02: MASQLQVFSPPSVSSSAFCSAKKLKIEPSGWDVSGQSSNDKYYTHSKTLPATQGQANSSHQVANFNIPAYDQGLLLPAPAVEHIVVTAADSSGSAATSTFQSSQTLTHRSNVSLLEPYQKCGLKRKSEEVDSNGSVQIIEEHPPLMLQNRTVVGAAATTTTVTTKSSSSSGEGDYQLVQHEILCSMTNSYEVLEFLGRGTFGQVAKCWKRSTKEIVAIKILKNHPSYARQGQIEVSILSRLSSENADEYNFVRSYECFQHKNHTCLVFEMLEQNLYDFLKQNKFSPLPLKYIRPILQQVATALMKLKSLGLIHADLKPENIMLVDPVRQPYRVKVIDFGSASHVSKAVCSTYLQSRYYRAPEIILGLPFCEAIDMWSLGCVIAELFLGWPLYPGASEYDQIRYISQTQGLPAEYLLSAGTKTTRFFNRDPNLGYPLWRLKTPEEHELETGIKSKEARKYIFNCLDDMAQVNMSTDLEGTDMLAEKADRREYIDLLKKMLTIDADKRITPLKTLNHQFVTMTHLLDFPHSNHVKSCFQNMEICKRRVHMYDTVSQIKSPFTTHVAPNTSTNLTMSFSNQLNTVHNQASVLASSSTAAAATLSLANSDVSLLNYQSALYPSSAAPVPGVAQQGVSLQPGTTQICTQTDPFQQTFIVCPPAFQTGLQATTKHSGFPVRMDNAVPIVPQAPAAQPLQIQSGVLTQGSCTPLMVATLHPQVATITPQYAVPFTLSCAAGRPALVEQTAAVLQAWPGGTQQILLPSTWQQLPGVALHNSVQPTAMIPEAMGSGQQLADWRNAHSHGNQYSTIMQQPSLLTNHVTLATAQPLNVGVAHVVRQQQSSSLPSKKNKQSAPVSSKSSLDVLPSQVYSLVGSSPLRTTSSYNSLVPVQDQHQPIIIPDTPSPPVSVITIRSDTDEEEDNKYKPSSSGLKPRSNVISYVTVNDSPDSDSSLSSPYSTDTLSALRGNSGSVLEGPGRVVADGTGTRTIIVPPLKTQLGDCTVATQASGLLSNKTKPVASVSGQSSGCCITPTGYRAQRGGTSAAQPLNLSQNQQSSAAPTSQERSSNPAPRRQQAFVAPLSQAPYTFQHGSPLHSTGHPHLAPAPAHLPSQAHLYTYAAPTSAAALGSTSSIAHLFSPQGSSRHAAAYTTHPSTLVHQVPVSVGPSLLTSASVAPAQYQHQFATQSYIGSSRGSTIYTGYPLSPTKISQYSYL
UniProt Q8TF76: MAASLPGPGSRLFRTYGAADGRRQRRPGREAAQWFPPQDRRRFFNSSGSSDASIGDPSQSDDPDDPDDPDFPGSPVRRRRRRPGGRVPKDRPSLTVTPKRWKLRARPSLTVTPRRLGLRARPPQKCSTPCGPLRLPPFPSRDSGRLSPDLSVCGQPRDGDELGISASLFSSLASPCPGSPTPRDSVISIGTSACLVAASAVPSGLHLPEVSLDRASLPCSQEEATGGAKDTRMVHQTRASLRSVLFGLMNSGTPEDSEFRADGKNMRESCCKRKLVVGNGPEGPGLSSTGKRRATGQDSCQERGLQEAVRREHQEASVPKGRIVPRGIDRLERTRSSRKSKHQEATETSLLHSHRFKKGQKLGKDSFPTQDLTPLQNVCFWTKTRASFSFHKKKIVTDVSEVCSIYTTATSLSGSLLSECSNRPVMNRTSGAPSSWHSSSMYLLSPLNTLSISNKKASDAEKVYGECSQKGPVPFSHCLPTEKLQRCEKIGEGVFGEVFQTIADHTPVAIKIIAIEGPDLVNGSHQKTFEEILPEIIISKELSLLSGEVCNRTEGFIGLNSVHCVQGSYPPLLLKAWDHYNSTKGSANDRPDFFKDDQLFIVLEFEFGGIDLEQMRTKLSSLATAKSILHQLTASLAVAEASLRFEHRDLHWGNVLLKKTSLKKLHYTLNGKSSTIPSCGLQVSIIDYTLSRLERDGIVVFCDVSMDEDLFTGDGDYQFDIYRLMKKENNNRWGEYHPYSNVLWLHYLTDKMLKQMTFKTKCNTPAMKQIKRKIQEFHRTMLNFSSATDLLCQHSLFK
UniProt P08631: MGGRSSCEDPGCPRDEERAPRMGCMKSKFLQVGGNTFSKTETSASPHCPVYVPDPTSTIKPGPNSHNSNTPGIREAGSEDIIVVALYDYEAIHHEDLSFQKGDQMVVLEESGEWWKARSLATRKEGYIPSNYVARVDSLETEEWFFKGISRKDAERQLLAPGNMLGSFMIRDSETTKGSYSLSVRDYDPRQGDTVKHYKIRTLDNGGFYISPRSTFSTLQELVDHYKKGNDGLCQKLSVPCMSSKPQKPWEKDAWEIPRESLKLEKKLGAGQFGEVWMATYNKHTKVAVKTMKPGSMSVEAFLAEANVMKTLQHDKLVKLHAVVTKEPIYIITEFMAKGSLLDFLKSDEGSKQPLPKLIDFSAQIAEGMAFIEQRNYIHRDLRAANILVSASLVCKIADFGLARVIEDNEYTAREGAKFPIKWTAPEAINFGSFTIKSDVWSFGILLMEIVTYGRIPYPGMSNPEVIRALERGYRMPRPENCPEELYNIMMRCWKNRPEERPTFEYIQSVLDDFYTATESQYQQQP

Columns and labels:
[1] = molecular target: Ephrin type-A receptor 7 (Homo sapiens) (UniProt Q15375); settings: at 10 µM
[2] = molecular target: T1, Ephrin type-A receptor 8 (Homo sapiens) (UniProt P29322); settings: at 1 µM
T1 sequence (whole entry): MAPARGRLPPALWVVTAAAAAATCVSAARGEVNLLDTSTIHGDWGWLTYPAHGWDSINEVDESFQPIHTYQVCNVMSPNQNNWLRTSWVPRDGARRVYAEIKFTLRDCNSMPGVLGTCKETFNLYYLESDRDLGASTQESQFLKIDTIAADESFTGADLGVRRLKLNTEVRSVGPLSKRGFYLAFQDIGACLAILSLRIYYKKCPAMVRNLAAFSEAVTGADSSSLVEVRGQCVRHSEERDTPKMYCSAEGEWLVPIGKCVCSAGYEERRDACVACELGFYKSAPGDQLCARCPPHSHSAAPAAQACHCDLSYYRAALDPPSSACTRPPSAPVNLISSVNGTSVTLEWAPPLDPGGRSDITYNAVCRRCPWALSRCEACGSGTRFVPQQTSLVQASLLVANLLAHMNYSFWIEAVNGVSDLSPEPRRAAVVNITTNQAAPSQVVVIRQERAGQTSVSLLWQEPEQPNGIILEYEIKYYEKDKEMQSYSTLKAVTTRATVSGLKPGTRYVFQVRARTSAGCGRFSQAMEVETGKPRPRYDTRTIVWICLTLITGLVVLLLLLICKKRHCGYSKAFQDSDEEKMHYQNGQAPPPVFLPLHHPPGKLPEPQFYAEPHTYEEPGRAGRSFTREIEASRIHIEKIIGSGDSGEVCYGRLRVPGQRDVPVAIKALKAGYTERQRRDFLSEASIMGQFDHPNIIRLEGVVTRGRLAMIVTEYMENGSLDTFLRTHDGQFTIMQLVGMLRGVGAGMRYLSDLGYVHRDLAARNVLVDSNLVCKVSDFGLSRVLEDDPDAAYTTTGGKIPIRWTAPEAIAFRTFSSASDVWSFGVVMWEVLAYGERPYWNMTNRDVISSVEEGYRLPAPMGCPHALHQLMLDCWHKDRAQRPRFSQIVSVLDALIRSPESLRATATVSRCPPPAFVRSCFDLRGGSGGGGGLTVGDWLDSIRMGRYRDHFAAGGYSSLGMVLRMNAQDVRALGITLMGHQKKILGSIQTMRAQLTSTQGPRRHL

[3] = molecular target: T2, Ephrin type-B receptor 1 (Homo sapiens) (UniProt P54762); settings: at 1 µM
T2 sequence (whole entry): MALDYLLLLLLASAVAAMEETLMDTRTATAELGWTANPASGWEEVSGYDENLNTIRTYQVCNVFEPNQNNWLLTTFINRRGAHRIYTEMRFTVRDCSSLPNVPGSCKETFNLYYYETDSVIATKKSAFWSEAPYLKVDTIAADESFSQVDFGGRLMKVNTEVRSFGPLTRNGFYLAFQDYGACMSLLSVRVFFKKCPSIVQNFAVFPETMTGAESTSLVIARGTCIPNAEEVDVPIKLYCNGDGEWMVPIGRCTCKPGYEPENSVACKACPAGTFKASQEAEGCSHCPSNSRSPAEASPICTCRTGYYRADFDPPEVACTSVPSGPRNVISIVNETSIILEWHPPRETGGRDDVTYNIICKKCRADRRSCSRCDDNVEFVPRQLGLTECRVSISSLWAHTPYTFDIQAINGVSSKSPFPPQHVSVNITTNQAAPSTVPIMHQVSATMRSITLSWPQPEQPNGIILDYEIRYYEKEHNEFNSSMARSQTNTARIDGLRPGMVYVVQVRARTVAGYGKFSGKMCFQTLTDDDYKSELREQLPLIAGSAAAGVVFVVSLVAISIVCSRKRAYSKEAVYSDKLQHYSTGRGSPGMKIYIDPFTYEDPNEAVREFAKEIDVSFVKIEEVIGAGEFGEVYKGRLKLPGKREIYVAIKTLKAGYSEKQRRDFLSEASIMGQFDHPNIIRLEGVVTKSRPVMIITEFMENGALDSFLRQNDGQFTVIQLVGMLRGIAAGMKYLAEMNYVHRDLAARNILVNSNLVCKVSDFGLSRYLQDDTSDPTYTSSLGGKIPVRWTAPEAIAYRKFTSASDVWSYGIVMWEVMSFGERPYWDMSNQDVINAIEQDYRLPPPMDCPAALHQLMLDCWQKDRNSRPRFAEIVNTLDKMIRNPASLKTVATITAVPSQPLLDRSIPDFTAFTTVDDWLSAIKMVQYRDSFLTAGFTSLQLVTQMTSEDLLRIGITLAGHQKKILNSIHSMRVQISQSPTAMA

[4] = molecular target: T2, Ephrin type-B receptor 1 (Homo sapiens); settings: at 10 µM
[5] = molecular target: Fibroblast growth factor receptor 3 (Homo sapiens) (UniProt P22607); settings: at 1 µM
[6] = molecular target: Tyrosine-protein kinase Fes/Fps (Homo sapiens) (UniProt P07332); settings: at 1 µM
[7] = molecular target: Tyrosine-protein kinase Fgr (Homo sapiens) (UniProt P09769); settings: at 1 µM
[8] = molecular target: Tyrosine-protein kinase Fyn (Homo sapiens) (UniProt P06241); settings: at 1 µM
[9] = molecular target: G protein-coupled receptor kinase 6 (Homo sapiens) (UniProt P43250); settings: at 1 µM
[10] = molecular target: Homeodomain-interacting protein kinase 1 (Homo sapiens) (UniProt Q86Z02); settings: at 1 µM
[11] = molecular target: Homeodomain-interacting protein kinase 1 (Homo sapiens) (UniProt Q86Z02); settings: at 10 µM
[12] = molecular target: Serine/threonine-protein kinase haspin (Homo sapiens) (UniProt Q8TF76); settings: at 1 µM
[13] = molecular target: Tyrosine-protein kinase HCK (Homo sapiens) (UniProt P08631); settings: at 1 µM

`O=C1NC(=O)C(c2cn(CCCn3ccnc3)c3ccccc23)=C1Nc1ccccc1` was tested, and the residual activity [1] was 88%, the residual activity [2] was 91% and the residual activity [3] was 94%. It also gave a residual activity [4] of 90%, a residual activity [5] of 98% and a residual activity [6] of 91%. It also gave a residual activity [7] of 98%, a residual activity [8] of 90% and a residual activity [9] of 85%. For the same compound, the residual activity [10] was 98%, the residual activity [11] was 97% and the residual activity [12] was 84%. The residual activity [13] was 95%.
